Literature values, collected in paper PMC9229563, “Pharmacokinetics and the Dermal Absorption of Bromochlorophene, a Cosmetic Preservative Ingredient, in Rats” (Toxics, 2022).

Conditions: rat, in vivo, po; cited from earlier work

Oc1c(Br)cc(Cl)cc1Cc1cc(Cl)cc(Br)c1O [BCP, 2,2'-Methylenbis (6-bromo-4-chlorophenol)]
LD50: 3700 mg/kg
